In PubChem BioAssay:
This is a selection; strong and weak results do not stand in their true shares. The source made the active and inactive calls.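 How the source made its calls: active means membrane potential signal drops by more than 5 SD from the mean control signal, in both duplicate plates; inactive means the rest.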

Test: membrane potential response modulators in host HEK293 cells – cell-based, second counter-screen, parental HEK293, membrane potential dye, counter-screen for TRPC6 modulator project, confirmation (AID 488926);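 further: plate controls were acetylcholine ECmax control wells for no effect and buffer only wells for full effect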
Settings: parental HEK293, membrane potential dye fluorescence; at 10 µM; stronger effect = higher value; after compound, maximal acetylcholine stimulation

SMILES | inhibition
CN1CCN(CCOC(=O)C(O)(c2ccccc2)c2ccccc2)CC1 | active: 79%
O=C(OC1CN2CCC1CC2)C1c2ccccc2C=Cc2ccccc21 (configuration not stated) | active: 88.5%
